From PubChem BioAssay AID623877 (Johns Hopkins Ion Channel Center, 2012)
Only a part is listed here, and it is no random draw. Calls of active or inactive are those of the source.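 Rule for the calls: active = fluorescence-ratio B-score plate-corrected deviation score at least 3 library SD below zero, with starting fluorescence score within 5 deviations; inactive = the rest.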

Amino acid sequences for entries named in this document (tags omitted).
UniProt Q8BHY3, whole entry: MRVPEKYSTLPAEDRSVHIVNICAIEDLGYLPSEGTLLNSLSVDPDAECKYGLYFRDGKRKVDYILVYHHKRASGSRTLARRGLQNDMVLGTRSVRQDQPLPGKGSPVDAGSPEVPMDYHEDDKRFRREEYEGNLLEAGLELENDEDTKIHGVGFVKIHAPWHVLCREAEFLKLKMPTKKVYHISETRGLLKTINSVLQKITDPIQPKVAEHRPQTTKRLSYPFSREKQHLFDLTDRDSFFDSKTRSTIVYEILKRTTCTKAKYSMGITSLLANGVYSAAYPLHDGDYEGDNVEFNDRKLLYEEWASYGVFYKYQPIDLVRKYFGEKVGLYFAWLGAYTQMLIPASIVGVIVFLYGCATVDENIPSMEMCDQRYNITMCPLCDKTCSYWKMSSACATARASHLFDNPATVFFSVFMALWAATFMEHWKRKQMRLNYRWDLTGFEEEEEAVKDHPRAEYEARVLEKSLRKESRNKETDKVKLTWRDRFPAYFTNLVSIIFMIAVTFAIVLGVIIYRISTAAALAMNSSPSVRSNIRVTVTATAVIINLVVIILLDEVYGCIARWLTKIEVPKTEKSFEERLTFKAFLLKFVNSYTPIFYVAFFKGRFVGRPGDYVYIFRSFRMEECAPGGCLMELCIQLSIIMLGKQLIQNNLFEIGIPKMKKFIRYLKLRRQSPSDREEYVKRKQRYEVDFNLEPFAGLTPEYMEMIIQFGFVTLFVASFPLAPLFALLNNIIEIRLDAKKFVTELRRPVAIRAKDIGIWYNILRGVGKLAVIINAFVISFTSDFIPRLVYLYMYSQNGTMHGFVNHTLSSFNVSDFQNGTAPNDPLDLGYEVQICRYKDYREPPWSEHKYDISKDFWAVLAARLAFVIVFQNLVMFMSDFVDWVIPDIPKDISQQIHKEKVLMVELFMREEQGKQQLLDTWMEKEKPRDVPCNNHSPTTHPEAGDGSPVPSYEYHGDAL

Target: Anoctamin-1 (Mus musculus) (UniProt Q8BHY3)
Test: mouse ANO1 channel activation – cell-based, HTS, primary screen (AID 623877)
Conditions: HEK293 TMEM16A/YFP-H148Q/I152L, iodide quench fluorescence; at 10 µM

| Structure (SMILES) | outcome |
| --- | --- |
| Cc1cc(N(CCCl)CCCl)ccc1C=O | inactive |
| CCCN1CCC(Nc2cc(OC)cc(OC)c2)CC1 | inactive |
| c1ccc(CN2CCC(Nc3ccccc3)CC2)cc1 | inactive |
| CN(C)C1(CNC(=O)c2cccc(C#N)c2)CCCCC1 | inactive |
| CC(C)(C)OC(=O)N1CCC(N(C(=O)c2ccccc2)c2ccc(Cl)cc2)CC1 | inactive |
| N#Cc1ccc(C(=O)NCC2(N3CCCCC3)CCCCC2)cc1 | inactive |
| N/C(=N\O)c1c(N)no[n+]1[O-] | inactive |
| CCOC(=O)N1CCC(Nc2ccc(C)cc2)CC1 | inactive |
| O=C(OC1CN2CCC1CC2)C1c2ccccc2C=Cc2ccccc21 (stereo not drawn) | inactive |
| O=C(NCC1(N2CCOCC2)CCCCC1)c1cc(Br)ccc1Cl | inactive |
| COc1cc(C(=O)NCC2(N3CCOCC3)CCCCC2)cc(OC)c1C | inactive |
| COc1ccc(C(=O)NCC2(N3CCOCC3)CCCCC2)cc1OC | inactive |
| CCC(CO)(C(=O)OC1CN2CCC1CC2)c1ccccc1 (stereo not drawn) | inactive |
| COc1cccc(C(=O)N(c2cc(C)cc(C)c2)C2CCN(C(=O)OC(C)(C)C)CC2)c1 | inactive |
| COc1cc(OC)cc(C(=O)NCC2(N3CCOCC3)CCCCC2)c1 | inactive |
| CN1CCC(Nc2ccc(Cl)cc2)CC1 | inactive |
| CN1CCC(Nc2ccc(F)c(Cl)c2)CC1 | inactive |
| CCOc1ncccc1C(=O)NCC1(N2CCOCC2)CCCCC1 | inactive |
| CCCOc1ccc(C(=O)NCC2(N(C)C)CCCCC2)cc1 | inactive |
| O=C(O)C1(Nc2ccccc2)CCN(Cc2ccccc2)CC1 | inactive |
| CC(C)(C)OC(=O)N1CCC(Nc2ccccc2)CC1 | inactive |
| CCN1CCC(Nc2cccc(F)c2)CC1 | inactive |
| Cc1ccccc1NC1(C#N)CCN(Cc2ccccc2)CC1 | inactive |
| Cn1c(=O)[nH]cc(N(CCCl)CCCl)c1=O | inactive |
| CN(C)c1ccc(C(=O)NCC2(N3CCCCC3)CCCCC2)cc1 | inactive |

| Structure (SMILES) | outcome |
| --- | --- |
| O=C(NCC1(N2CCCCC2)CCCCC1)c1ccco1 | inactive |
| COc1cc(OC)cc(C(=O)NCC2(N3CCCCC3)CCCCC2)c1 | inactive |
| CC(=O)N(c1ccccc1)C1CCNCC1 | inactive |
| Cc1ccc(NC2(C#N)CCN(Cc3ccccc3)CC2)cc1 | inactive |
| Fc1ccccc1NC1CCN(Cc2ccccc2)CC1 | inactive |
| Cc1ccc(C(=O)NCC2(N3CCCCC3)CCCCC2)o1 | inactive |
| CCOC(=O)N1CCC(Nc2cccc(C)c2)CC1 | inactive |
| CCOc1ccc(C)cc1CN(CCCl)CCCl | inactive |
| O=C1CCN(Cc2ccccc2)CC1 | inactive |
| CCOC(=O)N1CCC(Nc2ccc(F)cc2)CC1 | inactive |
| COc1ccc(NC2CCN(CCc3ccccc3)CC2)c(OC)c1 | inactive |
| O=C(NCC1(N2CCCCC2)CCCCC1)c1ccc(F)cc1 | inactive |
| CCCCOc1ccc(C(=O)NCC2(N3CCOCC3)CCCCC2)cc1 | inactive |
| O=P1(N(CCCl)CCCl)SCCCS1 | inactive |
| O=C(NCC1(N2CCOCC2)CCCCC1)c1cc2ccccc2o1 | inactive |
| Cc1cc(C)cc(N(C(=O)c2ccccc2)C2CCN(C(=O)OC(C)(C)C)CC2)c1 | inactive |
| O=C(NCC1(N2CCCCC2)CCCCC1)c1ccc(Cl)nc1 | inactive |
| CCOC(=O)N1CCC(Nc2ccc(OC)cc2)CC1 | inactive |
| COc1ccc(Cl)cc1C(=O)NCC1(N2CCOCC2)CCCCC1 | inactive |
| O=C(OC1CN2CCC1CC2)C1c2ccccc2Oc2ccccc21 (stereo not drawn) | inactive |
| O=C(NCC1(N2CCCCC2)CCCCC1)c1ccc(Cl)s1 | inactive |
| N#CC1(Nc2ccccc2)CCN(Cc2ccccc2)CC1 | inactive |
| O=C(NCC1(N2CCCCC2)CCCCC1)c1cccs1 | inactive |
| O=C(NCC1(N2CCCCC2)CCCCC1)c1ccc(=O)[nH]c1 | inactive |
| CC(C)(C)OC(=O)N1CCC(N(C(=O)c2ccccc2)c2ccc(F)cc2)CC1 | inactive |

| Structure (SMILES) | outcome |
| --- | --- |
| COc1ccc(C(=O)NCC2(N3CCCCC3)CCCCC2)c(OC)c1OC | inactive |
| COc1ccc(C(=O)NCC2(N3CCCCC3)CCCCC2)cc1 | inactive |
| Cc1cccc(NC2(C#N)CCN(Cc3ccccc3)CC2)c1 | inactive |
| CSc1ccccc1C(=O)NCC1(N2CCCCC2)CCCCC1 | inactive |
| O=C(NCC1(N2CCCCC2)CCCCC1)c1cncc(Br)c1 | inactive |
| CN1CCC(Nc2cccc(F)c2)CC1 | inactive |
| CCCOc1ccc(C(=O)NCC2(N(C)C)CCCCC2)cc1OC | inactive |
| CN(C)c1cccc(C(=O)NCC2(N3CCCCC3)CCCCC2)c1 | inactive |
| COc1ccc(CN(CCCl)CCCl)cc1Cl | inactive |
| CC(C)c1ccc(NC2CCN(C(=O)OC(C)(C)C)CC2)cc1 | inactive |
| O=C(NCC1(N2CCOCC2)CCCCC1)c1cc(F)c(F)cc1Cl | inactive |
| COc1cc(OC)c(C(=O)NCC2(N(C)C)CCCCC2)cc1OC | inactive |
| O=C(NCC1(N2CCCCC2)CCCCC1)c1cccc(C(F)(F)F)c1 | inactive |
| CC(C)c1ccc(C(=O)NCC2(N3CCOCC3)CCCCC2)cc1 | inactive |
| COc1ccc(NC2CCN(C(=O)OC(C)(C)C)CC2)cc1 | inactive |
| CN1CCN(CCOC(=O)C(O)(c2ccccc2)c2ccccc2)CC1 | inactive |
| O=C(NCC1(N2CCOCC2)CCCCC1)c1cc(=O)[nH]c2ccccc12 | inactive |
| COc1cc(C(=O)NCC2(N3CCCCC3)CCCCC2)ccc1OC(F)F | inactive |
| O=C(NCC1(N2CCCCC2)CCCCC1)c1ccc(OC(F)F)cc1 | inactive |
| O=C(NCC1(N2CCCCC2)CCCCC1)c1cccc([N+](=O)[O-])c1 | inactive |
| CSc1ccc(C(=O)NCC2(N3CCOCC3)CCCCC2)cc1 | inactive |
| N#CC1(Nc2ccccc2)CCN(CCc2ccccc2)CC1 | inactive |
| CCN1CCC(Nc2ccc(Cl)cc2)CC1 | inactive |
